For the assay, the target named is T1, bovine spleen ADA (Bos taurus, UniProt P56658).
T1 sequence (P56658 1-363): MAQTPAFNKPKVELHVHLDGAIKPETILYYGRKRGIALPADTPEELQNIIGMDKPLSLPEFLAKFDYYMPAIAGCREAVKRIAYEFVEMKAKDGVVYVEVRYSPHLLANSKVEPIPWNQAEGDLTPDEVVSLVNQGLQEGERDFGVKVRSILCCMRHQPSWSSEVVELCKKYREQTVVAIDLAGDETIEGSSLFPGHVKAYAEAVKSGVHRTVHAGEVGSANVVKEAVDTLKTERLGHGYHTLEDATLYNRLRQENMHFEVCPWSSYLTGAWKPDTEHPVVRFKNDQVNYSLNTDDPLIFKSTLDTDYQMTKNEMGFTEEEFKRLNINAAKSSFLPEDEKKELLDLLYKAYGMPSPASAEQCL
Nature of the assay: HTS plate-reader fluorescence assay of ADA. The class given is biochemical. Conditions: HTS assay format.

What is called IC50 is the midpoint of a concentration-inhibition curve. A high value points to weaker potency in that assay. As a reminder, the Ki is the equilibrium dissociation constant of an inhibitor or competing ligand from its target. A lower Ki goes with a stronger hold on the target.

Regarding “erythro-9-(2-hydroxy-3-nonyl) adenine [EHNA]”, the IC50 (EHNA 10-point curve, 37 °C) came out at 6 ± 2 nM. Also, the Ki (converted from IC50 by Cheng-Prusoff) turned out to be 5 ± 2 nM.

Source of the values: paper PMC7815202 (ChemMedChem, 2020).
